Assay results: PubChem BioAssay AID527 (NMMLSC, 2006)
The entries are a selection whose mix differs from that of the whole data set. Some of these compounds have results that are not shown, active ones among them. Activity calls are given as the source filed them.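 The calls were made as follows: active = share of bacteria positive for the green fluorescent reporter and its mean brightness both inhibited by 50% or more; inactive = the rest, inconclusive results apart.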

Assay: blockers of AIP-driven agr signalling in S. aureus – RNAIII-GFP reporter, flow cytometry, primary screen (AID 527);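 also: 0% = AIP-stimulated control and 100% = unstimulated bacteria without AIP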
Conditions: S. aureus RN6390 RNAIII-GFP reporter, AIP-induced, flow cytometry 3 h; at 2 µM; active compounds read high

SMILES	inhibition
O=C(OC1CN2CCC1CC2)C(CO)(c1ccccc1)c1ccccc1 (stereo unspecified)	inactive: 0.2%
